Experimental data reported in patent US11542475B2, “3D microphysiologic system” (Northwestern University, priority 2014, dated 2023).

Tests used:
follicles = experiment: Follicle culture in microfluidic ovarian subsystem: progesterone secretion after hCG; type: cell-based
[1] = Stability of FSH and hCG in the microfluidic system (growth medium without follicles); conditions: 48 hours incubation

In the case of “hCG: human chorionic gonadotropin, used to trigger ovulation”, the “progesterone secretion after hCG treatment” value (follicles) is reported as “significantly increased” and the “stability in the microfluidic system” value [1] is reported as “stable”.
